According to PubChem BioAssay AID485367 (National Center for Advancing Translational Sciences (NCATS), 2010):
Only a part is listed here, and it is no random draw. Some results for these compounds are left out of this collection, so the calls shown say nothing about other tests. Activity calls are given as the source filed them. Calls follow the shape of the dose curve; as a rule, active = well fitted inhibition curve with a large enough effect; inconclusive = small, poorly fitted or top-dose-only effect, or effect the other way; inactive = flat fitted curve, though single readings scatter.

Chains of the proteins cited; added tags and fusions are not shown.
UniProt O15648, whole entry: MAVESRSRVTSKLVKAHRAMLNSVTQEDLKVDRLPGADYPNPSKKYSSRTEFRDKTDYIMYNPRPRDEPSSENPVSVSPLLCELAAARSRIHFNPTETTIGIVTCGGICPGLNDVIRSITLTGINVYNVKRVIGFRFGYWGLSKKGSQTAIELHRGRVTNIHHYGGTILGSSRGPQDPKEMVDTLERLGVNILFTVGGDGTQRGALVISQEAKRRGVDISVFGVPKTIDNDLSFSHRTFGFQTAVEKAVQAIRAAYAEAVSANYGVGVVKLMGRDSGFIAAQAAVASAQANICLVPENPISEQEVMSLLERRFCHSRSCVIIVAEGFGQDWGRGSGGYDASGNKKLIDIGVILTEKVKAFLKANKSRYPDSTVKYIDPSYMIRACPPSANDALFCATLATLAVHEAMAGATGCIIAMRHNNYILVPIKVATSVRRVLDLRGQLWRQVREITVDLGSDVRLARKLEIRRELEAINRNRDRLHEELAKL

Target: ATP-dependent 6-phosphofructokinase (Trypanosoma brucei brucei) (UniProt O15648)
Experiment: qHTS Assay to Find Inhibitors of T. brucei phosphofructokinase; also: nearly all actives have a fitted effect of over 60% in size
Settings: T. brucei PFK, ADP-Glo luminescence; at 57.5 µM (top of the series)
Source text: NIH Molecular Libraries Probe Production Network [MLPCN] NIH Chemical Genomics Center [NCGC] Grant: 1 R03 MH092153-01 PI Name: Malcolm Walkinshaw, University of Edinburgh NCGC Assay Overview: Various species of the protozoan family Trypanosomatidae are responsible for a range of serious human diseases in tropical and subtropical areas of the world. […] Many of the disorders caused by trypanosomatids are fatal if left untreated, but most currently used drugs are inefficient and toxic. […] Oxidative metabolism involving the mitochondrial tricarboxylic acid cycle and oxidative phosphorylation are repressed in these parasites, and recent RNA interference (RNAi) experiments have shown that even partial depletion of certain individual glycolytic enzymes can lead to the death of cultured parasites. One such glycolytic enzyme, phosphofructokinase (PFK), catalyzes the formation of fructose-1,6-bisphosphate (F1,6BP) and ADP from fructose-6-phosphate (F6P) and ATP, and in many metabolic circumstances makes an important contribution to the control of flux through the glycolytic pathway. As a specific glycolytic target, PFK is particularly attractive as it catalyzes the first irreversible step in glycolysis, and structural and kinetic studies have shown very substantial and essential differences from corresponding host enzymes, allowing for the discovery of parasite-selective inhibitors. The goal of this screen is to find small-molecule inhibitors of T. brucei PFK using a biochemical assay that measures PFK activity as a function of ADP production. A luminescence-based assay for T. brucei PFK activity has been developed which uses luciferase to detect production of ADP. Traditional luciferase-based nucleotide detection reagents rely on ATP production as a direct substrate for the luciferase reaction; however, PFK catalyzes the transfer of a phosphate from ATP to F6P, resulting in the net depletion of ATP. To directly measure the ADP product of the PFK reaction, we used the ADP-Glo detection kit (Promega), which utilizes two separate reactions to 1) deplete all remaining uncatalyzed ATP and 2) convert all remaining ADP to ATP, which is then detected through a traditional luciferase-coupled reaction. Compounds were screened as a concentration-titration series that ranged from 57 uM to 0.7 nM.
NCGC Assay Protocol Summary: NCGC Assay Protocol Summary: Substrate buffer was dispensed into white, solid 1536-well plates at 3uL/well in 0.1M triethanolamine (TEA) buffer, pH 8.0, containing final concentrations of 5 mM MgCl2, 0.01% Tween20, 0.5 mM fructose-6-phosphate (F6P) and 0.1mM ATP. Then, 23 nL of compounds or DMSO were delivered to each well using a pin tool. One uL T. brucei PFK (0.1M TEA, 0.01% Tween20, 0.1% bovine serum albumin (BSA) and 1.25nM PFK, final concentrations) was then dispensed, and plates were incubated at room temperature for 45 min. The luminescent detection reagent, ADP-Glo (Promega), was then added in two steps: the first reagent, ADP-Glo (which converts remaining uncatalyzed ATP), was added at 2.5uL/well and incubated for ten minutes at room temperature, and the second component, Kinase Detection reagent (which converts ADP to ATP as a substrate for luciferase-based luminescence), was added immediately after at 5uL/well, followed by one final ten minute room temperature incubation. The plates were measured on a ViewLux plate reader for luminescent signal using a clear filter with a one second exposure. The %Activity was determined from the corrected luminescence values. As no specific T. brucei PFK inhibitors have been identified in the literature, 1x (1.25nM) and 0x PFK enzyme controls (untreated) were included to normalize %Activity of identified inhibitors; 0x enzyme values corresponded to 100%Activity (full inhibition), while 1x PFK enzyme values were used to normalize 0%Activity (no inhibition). Concentration-response curves were fitted to the signals arising from the resulting luminescence. […]

| Compound | activity, negative = inhibition |
| --- | --- |
| CN(C)c1cccc(C(=O)NCC2(N(C)C)CCCCC2)c1 | inactive: 1.51% |
| CC(C)Oc1ccc(C(=O)NCC2(N(C)C)CCCCC2)cc1 | inactive: -11% |
| COc1ccc(Br)c(C(=O)NCC2(N3CCCCC3)CCCCC2)c1 | inactive: 0% |
| O=C(OC1CN2CCC1CC2)C(CO)(c1ccccc1)c1ccccc1 (centres undefined) | inactive: -1.58% |
| O=C(NCC1(N2CCCCC2)CCCCC1)c1cccc(Cl)c1 | inactive: -2.18% |
| COc1cccc(C(=O)NCC2(N3CCCCC3)CCCCC2)c1 | inactive: 1.21% |
| COc1ccc(Cl)cc1C(=O)NCC1(N(C)C)CCCCC1 | inactive: 1.14% |
| COc1cc(C(=O)NCC2(N(C)C)CCCCC2)c([N+](=O)[O-])cc1OC | inactive: 0.557% |
| CN(C)C1(CNC(=O)c2ccc(Br)cc2)CCCCC1 | inactive: 7.71% |
| Cc1cc(C(=O)NCC2(N3CCCCC3)CCCCC2)ccc1[N+](=O)[O-] | inactive: -2.4% |
| CCN1CCCC(OC(=O)C2(O)c3ccccc3C=Cc3ccccc32)C1 (centres undefined) | inactive: -0.156% |
| O=C(NCC1(N2CCCCC2)CCCCC1)c1cccc(Br)c1 | inactive: -0.241% |
| COc1ccc(C(=O)NCC2(N(C)C)CCCCC2)cc1 | inactive: -1.02% |
| C=CCN1CCN(CCOC(=O)C(O)(c2ccccc2)c2ccccc2)CC1 | inactive: -0.0567% |
| O=C(NCC1(N2CCCCC2)CCCCC1)c1cc(F)c(F)cc1Cl | inactive: 0.774% |
| Cc1ccccc1C(=O)NCC1(N2CCCCC2)CCCCC1 | inactive: -1.18% |
| CN(C)C1CCCC1OC(=O)C(O)(c1ccccc1)c1ccccc1 (centres undefined) | inactive: 8.36% |
| CN(C)c1ccc(C(=O)NCC2(N(C)C)CCCCC2)cc1 | inactive: -5.88% |
| Cc1ccc(C(=O)NCC2(N3CCCCC3)CCCCC2)cc1 | inactive: 0.394% |
| CC(C)N1C(=O)CC2(CCN(CCOC(=O)C(O)(c3ccccc3)c3ccccc3)CC2)C1=O | inactive: -4.85% |
| CCN(CC)CC(C)C(C)OC(=O)C(O)(c1ccccc1)c1ccccc1 (centres undefined) | inactive: -2.32% |
| COc1cc(SC)ccc1C(=O)NCC1(N(C)C)CCCCC1 | inactive: -3.47% |
| CN1[C@@H]2CC[C@H]1CC(OC(=O)C(O)(c1ccccc1)c1ccccc1)C2 (some centres undefined) | inactive: 0% |
| O=C(NCC1(N2CCCCC2)CCCCC1)c1cc([N+](=O)[O-])ccc1Cl | inactive: 7.29% |
